The experiment concerns the target T1, urokinase enzyme Abbokinase (Homo sapiens, UniProt P00749).
T1 construct: purchased Abbott Laboratories, Abbott Park, Ill
The experiment in a line: Determination of Urokinase Inhibition (chromogenic substrate S-2444). The class given is biochemical. The procedure: Distributor of Chromogenix) at 200 μM. […] Four concentrations were chosen, then 5 μl of each were diluted to a total assay volume of 200 μl. […] Several vials were reconstituted as directed on the vial, aliquoted and stored frozen. The enzyme was further diluted in assay buffer and 10 μl was used in the assay. Enzyme concentration in the assay was 2-3 nM. […] The Spectromax® calculated the reaction rates which were used to calculate percent inhibition of the compounds of this invention versus the reaction rate of the enzyme in the absence of any inhibitor. The Ki 's of the inhibitors were calculated from the percent inhibition and previously established Km.

Where a name gives a salt, the structure may show the parent alone.

A word on the IC50: it is the concentration needed to halve the response being measured. A low value points to greater potency in that assay. Take `N=C(N)c1cc2c(Nc3ncccn3)cccc2s1` [Example 1, 4-(2-pyrimidinylamino)-1-benzothiophene-2-carboximidamide, trifluoroacetic acid salt]: the IC50 turned out to be 122 nM.

For the origin of these results see patent US6207701A, “Urokinase inhibitors” (Abbott Laboratories, priority 2000, dated 2001).
